Measurements taken from ChEMBL document CHEMBL1127305, “kappa Opioid receptor selective affinity labels: electrophilic benzeneacetamides as kappa-selective opioid antagonists” (J Med Chem, 1994).

Chains of the proteins cited; added tags and fusions are not shown. Lines headed by an entry give the natural chain unless they say otherwise; changes in a name come on top.
UniProt P33534: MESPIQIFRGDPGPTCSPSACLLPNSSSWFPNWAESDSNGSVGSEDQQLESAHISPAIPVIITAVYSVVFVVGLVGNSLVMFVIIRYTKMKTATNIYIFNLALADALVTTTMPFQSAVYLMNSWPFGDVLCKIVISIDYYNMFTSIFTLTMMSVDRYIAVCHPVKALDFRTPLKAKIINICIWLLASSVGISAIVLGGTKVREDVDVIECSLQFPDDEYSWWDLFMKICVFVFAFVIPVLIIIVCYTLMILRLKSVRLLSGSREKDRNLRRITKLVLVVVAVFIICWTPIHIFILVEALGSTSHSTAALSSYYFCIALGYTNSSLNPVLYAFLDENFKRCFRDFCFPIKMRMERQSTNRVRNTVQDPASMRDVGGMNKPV
UniProt P42866, whole entry, looked up: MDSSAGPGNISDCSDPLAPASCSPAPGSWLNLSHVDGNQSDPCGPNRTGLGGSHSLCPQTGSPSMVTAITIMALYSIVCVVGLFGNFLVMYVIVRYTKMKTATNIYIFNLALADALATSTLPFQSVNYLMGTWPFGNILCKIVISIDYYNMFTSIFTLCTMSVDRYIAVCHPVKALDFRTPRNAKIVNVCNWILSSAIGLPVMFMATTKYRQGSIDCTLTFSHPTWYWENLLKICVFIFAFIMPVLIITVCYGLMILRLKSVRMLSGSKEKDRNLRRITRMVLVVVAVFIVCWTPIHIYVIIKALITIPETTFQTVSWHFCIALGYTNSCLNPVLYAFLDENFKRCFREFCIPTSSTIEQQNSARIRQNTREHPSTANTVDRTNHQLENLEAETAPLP
UniProt P32300, whole entry, looked up: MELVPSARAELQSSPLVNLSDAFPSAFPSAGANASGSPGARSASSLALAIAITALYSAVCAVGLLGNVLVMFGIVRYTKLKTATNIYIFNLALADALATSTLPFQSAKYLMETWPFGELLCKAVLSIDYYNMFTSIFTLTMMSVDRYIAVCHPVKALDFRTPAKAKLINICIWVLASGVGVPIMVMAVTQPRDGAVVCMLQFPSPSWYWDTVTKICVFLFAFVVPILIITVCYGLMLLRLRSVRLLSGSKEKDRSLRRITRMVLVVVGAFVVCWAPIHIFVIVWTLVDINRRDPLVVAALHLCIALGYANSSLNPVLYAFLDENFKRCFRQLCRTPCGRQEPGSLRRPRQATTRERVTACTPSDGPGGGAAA
UniProt P41144: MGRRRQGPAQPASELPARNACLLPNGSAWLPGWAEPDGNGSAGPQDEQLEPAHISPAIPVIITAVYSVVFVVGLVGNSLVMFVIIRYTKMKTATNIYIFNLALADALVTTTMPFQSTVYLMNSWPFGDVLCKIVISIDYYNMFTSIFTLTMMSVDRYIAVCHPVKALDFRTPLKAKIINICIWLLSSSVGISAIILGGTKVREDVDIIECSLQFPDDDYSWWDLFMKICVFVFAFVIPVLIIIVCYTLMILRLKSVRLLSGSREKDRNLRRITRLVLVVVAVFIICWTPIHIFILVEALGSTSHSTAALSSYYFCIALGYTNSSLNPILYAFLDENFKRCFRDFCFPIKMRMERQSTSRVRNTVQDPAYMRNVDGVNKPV

Columns and labels:
[1] = molecular target: Kappa-type opioid receptor (Mus musculus) (UniProt P33534); test: Antagonist selectivity of kappa opioid receptor in treated mice at subcutaneous dose of 16 umol/kg, morphine was injected subcutaneously, at 20 min peak time by Mouse tail-flick assay
[2] = molecular target: Kappa-type opioid receptor (Mus musculus) (UniProt P33534); test: Agonist selectivity for kappa opioid receptor in the naltrindole-treated mice subcutaneous dose of 12.25 umol/kg of norBNI was administered
[3] = molecular target: Mu-type opioid receptor (Mus musculus) (UniProt P42866); test: Antagonist selectivity of mu opioid receptor in treated mice to that of control at subcutaneous dose of 16 umol/kg, morphine was injected subcutaneously, at 30 min peak time by Mouse tail-flick assay
[4] = molecular target: Delta-type opioid receptor (Mus musculus) (UniProt P32300); test: Antagonist selectivity for delta opioid receptor in treated mice at(sc) dose of 16 umol/kg, DPDPE was injected subcutaneously, at 20 min peak time by Mouse tail-flick assay
[5] = molecular target: Delta-type opioid receptor (Mus musculus) (UniProt P32300); test: Agonist selectivity for delta opioid receptor in the naltrindole-treated mice subcutaneous dose of 44.44 umol/kg of naltrindole was administered
[6] = molecular target: Mu-type opioid receptor (Mus musculus) (UniProt P42866); test: Agonist selectivity for mu opioid receptor in the beta-funaltrexamine-treated mice subcutaneous dose of 20.36 umol/kg of beta-FNA was administered
Cavia porcellus [7] = organism: Cavia porcellus; test: Tested for wash-resistant activity after forty post-washes (for removal of nor BNI) with Kreb's buffer pre-incubated with compound
[8] = molecular target: Kappa-type opioid receptor (Cavia porcellus) (UniProt P41144); test: Bmax for kappa opioid receptor in guinea pig brain membranes [3H]U-69593 as radioligand; settings: Membrane
Cavia porcellus [9] = organism: Cavia porcellus; test: Tested for wash-resistant activity by incubating guinea pig ileal longitudinal muscle (pre-treated with the compound) with nor BNI (20 nM).Number of determinations, n=3; settings: Muscle tissue
Cavia porcellus [10] = organism: Cavia porcellus; test: Tested for wash-resistant activity after forty post-washes (for removal of naltrexone) with Kreb's buffer pre-incubated with compound; format: functional, organism-based
Outline: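 Agonist-treated guinea pig ileal longitudinal muscle was washed, then incubated with naltrexone (500 nM) for 15 min. A further forty washes with Krebs' buffer followed. Read-out was percent recovery of twitch height.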

Cavia porcellus [11] = organism: Cavia porcellus; test: Tested for wash-resistant activity by incubating guinea pig ileal longitudinal muscle (pre-treated with the compound) with nor BNI (20 nM). Number of determinations, n=3; settings: Muscle tissue
[12] = molecular target: Mu-type opioid receptor (Mus musculus) (UniProt P42866); test: Agonist selectivity for mu opioid receptor in the beta-funaltrexamine-treated mice Subcutaneous dose of 20.36 umol/kg of beta-FNA was administered
[13] = molecular target: Kappa-type opioid receptor (Mus musculus) (UniProt P33534); test: Agonist selectivity for kappa opioid receptor in the naltrindole-treated mice. Subcutaneous dose of 12.25 umol/kg of norBNI was administered
[14] = molecular target: Delta-type opioid receptor (Mus musculus) (UniProt P32300); test: Agonist selectivity for delta opioid receptor in the naltrindole-treated mice Subcutaneous dose of 44.44 umol/kg of naltrindole was administered

Structure (SMILES): CN(C(=O)Cc1ccc(Cl)c(Cl)c1)[C@H](CN1CCCC1)c1ccc(N=C=S)cc1
- ED50 ratio [1]: 4.8
- ED50 ratio [2]: 2.78
- ED50 ratio [3]: 3.1
- ED50 ratio [4]: 1.2
- ED50 ratio [5]: 0.48
- ED50 ratio [6]: 0.78

Structure (SMILES): CN(C(=O)Cc1ccc(Cl)c(Cl)c1)[C@H](CN1CCCC1)c1cccc(N=C=S)c1
- Recovery (Cavia porcellus [7]): 35%
- Bmax [8]: 3.55 fM/mg
- Recovery (Cavia porcellus [9]): 77%

Structure (SMILES): CN(C(=O)Cc1ccc(Cl)c(Cl)c1)[C@H](CN1CCCC1)c1ccccc1 [ICI-199,441]
- Recovery (Cavia porcellus [10]): 32%
- Recovery (Cavia porcellus [7]): 32%
- Recovery (Cavia porcellus [11]): 91%

Structure (SMILES): COC(=O)/C=C/C(=O)Nc1cccc([C@@H](CN2CCCC2)N(C)C(=O)Cc2ccc(Cl)c(Cl)c2)c1
- ED50 ratio [12]: 2.08
- ED50 ratio [13]: 9.09
- ED50 ratio [14]: 1.02
